# Legend:
# Cathepsin B [1] = target: T1, Cathepsin B (Homo sapiens, UniProt P07858); assay: Inhibitory concentration against human liver cathepsin B
# Cathepsin B [2] = target: T1, Cathepsin B; assay: Tested for inhibitory effect on human liver cathepsin B
smiles,measurement,setting,value
CC[P+](CC)(CC)[Au-][S][C@@H]1O[C@H](COC(C)=O)[C@@H](OC(C)=O)[C@H](OC(C)=O)[C@H]1OC(C)=O,IC50,Cathepsin B [1],250 µM
same,Ki,Cathepsin B [2],440 µM

# From BindingDB's records for doi:10.1016/j.bmcl.2004.07.073 (University of Southern California, 2004)
